Test results reported in ChEMBL document CHEMBL1143970, “Structure-activity relationships and CoMFA of N-3 substituted phenoxypropyl piperidine benzimidazol-2-one analogues as NOP receptor agonists with analgesic properties” (Bioorg Med Chem, 2008).

Sequences of proteins named here, by UniProt entry; tags and fusion partners are left off.
UniProt P35372, whole entry: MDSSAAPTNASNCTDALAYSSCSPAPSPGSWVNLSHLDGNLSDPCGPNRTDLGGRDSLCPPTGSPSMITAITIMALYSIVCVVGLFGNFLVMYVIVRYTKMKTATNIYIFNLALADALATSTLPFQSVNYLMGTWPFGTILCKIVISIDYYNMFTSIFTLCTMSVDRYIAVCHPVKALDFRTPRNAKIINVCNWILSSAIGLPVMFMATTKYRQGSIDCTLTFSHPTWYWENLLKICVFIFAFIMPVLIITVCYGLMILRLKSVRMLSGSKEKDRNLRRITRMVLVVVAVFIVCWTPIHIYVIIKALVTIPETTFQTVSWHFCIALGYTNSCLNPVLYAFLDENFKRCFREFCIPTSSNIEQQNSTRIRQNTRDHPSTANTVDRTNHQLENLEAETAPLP
UniProt P41146, whole entry: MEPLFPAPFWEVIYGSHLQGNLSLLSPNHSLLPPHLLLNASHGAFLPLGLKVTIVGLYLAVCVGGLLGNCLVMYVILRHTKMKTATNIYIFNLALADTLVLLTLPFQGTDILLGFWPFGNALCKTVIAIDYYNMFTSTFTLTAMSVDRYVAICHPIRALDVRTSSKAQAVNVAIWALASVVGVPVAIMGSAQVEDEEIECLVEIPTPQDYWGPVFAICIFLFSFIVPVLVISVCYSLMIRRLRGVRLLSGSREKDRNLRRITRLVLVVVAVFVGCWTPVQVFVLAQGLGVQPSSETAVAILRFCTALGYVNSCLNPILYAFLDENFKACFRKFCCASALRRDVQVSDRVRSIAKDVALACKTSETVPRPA
UniProt P41143, whole entry: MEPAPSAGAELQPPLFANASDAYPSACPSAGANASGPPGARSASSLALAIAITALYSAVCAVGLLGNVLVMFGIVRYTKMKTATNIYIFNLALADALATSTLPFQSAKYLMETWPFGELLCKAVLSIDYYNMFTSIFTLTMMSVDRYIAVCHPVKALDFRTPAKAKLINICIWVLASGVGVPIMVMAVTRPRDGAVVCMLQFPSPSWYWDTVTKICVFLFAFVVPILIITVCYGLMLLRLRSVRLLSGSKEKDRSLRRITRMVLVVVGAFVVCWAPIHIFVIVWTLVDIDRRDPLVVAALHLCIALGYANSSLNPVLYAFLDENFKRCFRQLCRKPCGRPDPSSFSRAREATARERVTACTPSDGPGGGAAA
UniProt P41144, whole entry: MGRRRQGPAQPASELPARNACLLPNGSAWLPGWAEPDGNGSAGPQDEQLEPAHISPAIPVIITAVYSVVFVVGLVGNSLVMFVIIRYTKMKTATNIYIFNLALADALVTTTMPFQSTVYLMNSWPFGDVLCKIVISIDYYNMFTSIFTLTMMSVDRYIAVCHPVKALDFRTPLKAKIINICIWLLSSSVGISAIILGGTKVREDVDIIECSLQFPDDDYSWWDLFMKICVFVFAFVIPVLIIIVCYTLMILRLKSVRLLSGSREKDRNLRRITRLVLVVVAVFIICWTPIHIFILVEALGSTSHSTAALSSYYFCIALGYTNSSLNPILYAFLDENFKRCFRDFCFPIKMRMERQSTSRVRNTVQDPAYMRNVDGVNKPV

Experiments:
[1] = molecular target: Mu-type opioid receptor (Homo sapiens, UniProt P35372); assay: Displacement of [3H]Diprenorphine from human mu opioid receptor expressed in CHO cells
[2] = molecular target: Nociceptin receptor (Homo sapiens, UniProt P41146); assay: Displacement of [3H]nociceptin from human NOP receptor expressed in CHO cells
[3] = system: Mus musculus; assay: Antinociceptive activity against formalin-induced paw in iv dosed ICR mouse assessed as reduction of licking time in during 0 to 30 mins
[4] = molecular target: Delta-type opioid receptor (Homo sapiens, UniProt P41143); assay: Displacement of [3H]naltrindole from human delta opioid receptor expressed in deltaC6 cells; conditions: c6
[5] = molecular target: Kappa-type opioid receptor (Cavia porcellus, UniProt P41144); assay: Displacement of [3H]U-69593 from kappa opioid receptor in guinea pig brain cortical tissue
[6] = system: Mus musculus; assay: Antinociceptive activity against formalin-induced paw in iv dosed ICR mouse assessed as reduction of licking time during 0 to 5 mins

Compound	Log Ki [1]	Log Ki [2]	also measured
COc1ccc(C)c(OC(CCN2CCC(n3c(=O)n(Cc4c[nH]cn4)c4ccccc43)CC2)C(C)C)c1 (stereo not given)	-6.67	-8.43	
COc1ccc(C)c(OC(CCN2CCC(n3c(=O)n(Cc4cocn4)c4ccccc43)CC2)C(C)C)c1 (stereo not given)	-6.98	-8.6	
COc1ccc(C)c(OC(CCN2CCC(n3c(=O)n(Cc4ncn(C)n4)c4ccccc43)CC2)C(C)C)c1 (stereo not given)	-7	-7.02	
COc1ccc(C)c(OC(CCN2CCC(n3c(=O)n(Cc4ncsn4)c4ccccc43)CC2)C(C)C)c1 (stereo not given)	-7	-8.77	
COc1ccc(C)c(OC(CCN2CCC(n3c(=O)n(Cc4nc(C)no4)c4ccccc43)CC2)C(C)C)c1 (stereo not given)	-7.02	-7.53	
COc1ccc(C)c(OC(CCN2CCC(n3c(=O)n(Cc4ncco4)c4ccccc43)CC2)C(C)C)c1 (stereo not given)	-7.08	-8.41	
COc1ccc(C)c(OC(CCN2CCC(n3c(=O)n(Cn4ccnc4)c4ccccc43)CC2)C(C)C)c1 (stereo not given)	-6.92	-8.38	
COc1ccc(C)c(OC(CCN2CCC(n3c(=O)n(Cn4cncn4)c4ccccc43)CC2)C(C)C)c1 (stereo not given)	-7.41	-8.73	
COc1ccc(C)c(OC(CCN2CCC(n3c(=O)n(Cc4nnn[nH]4)c4ccccc43)CC2)C(C)C)c1 (stereo not given)	-5.99	-6.04	
COc1ccc(C)c(OC(CCN2CCC(n3c(=O)n(Cc4c(C)noc4C)c4ccccc43)CC2)C(C)C)c1 (stereo not given)	-7.25	-8.45	
COc1ccc(C)c(OC(CCN2CCC(n3c(=O)n(Cc4n[nH]c(=O)[nH]4)c4ccccc43)CC2)C(C)C)c1 (stereo not given)	-7.6	-8.23	
COc1ccc(C)c(OC(CCN2CCC(n3c(=O)n(Cc4cccs4)c4ccccc43)CC2)C(C)C)c1 (stereo not given)	-7.35	-8.85	
COc1ccc(C)c(OC(CCN2CCC(n3c(=O)n(Cc4noc(C)n4)c4ccccc43)CC2)C(C)C)c1 (stereo not given)	-6.69	-7.43	
COc1ccc(C)c(OC(CCN2CCC(n3c(=O)n(Cn4cccn4)c4ccccc43)CC2)C(C)C)c1 (stereo not given)	-6.65	-8.48	
COc1ccc(C)c(OC(CCN2CCC(n3c(=O)n(Cc4cnn[nH]4)c4ccccc43)CC2)C(C)C)c1 (stereo not given)	-6.74	-8.1	
COc1ccc(C)c(OC(CCN2CCC(n3c(=O)n(Cc4ncnn4C)c4ccccc43)CC2)C(C)C)c1 (stereo not given)	-7.32	-7.93	
COc1ccc(C)c(OC(CCN2CCC(n3c(=O)n(Cc4ncon4)c4ccccc43)CC2)C(C)C)c1 (stereo not given)	-7.11	-8.62	
COc1ccc(C)c(OC(CCN2CCC(n3c(=O)n(Cc4ccncc4)c4ccccc43)CC2)C(C)C)c1 (stereo not given)	-7.37	-7.54	
COc1ccc(C)c(OC(CCN2CCC(n3c(=O)n(Cc4ccccn4)c4ccccc43)CC2)C(C)C)c1 (stereo not given)	-7.28	-8.31	
COc1ccc(C)c(OC(CCN2CCC(n3c(=O)n(Cc4ccsc4)c4ccccc43)CC2)C(C)C)c1 (stereo not given)	-7.41	-8.82	
COc1ccc(C)c(OC(CCN2CCC(n3c(=O)n(Cc4cnccn4)c4ccccc43)CC2)C(C)C)c1 (stereo not given)	-7.12	-8.23	
COc1ccc(C)c(OC(CCN2CCC(n3c(=O)n(Cc4cccnc4)c4ccccc43)CC2)C(C)C)c1 (stereo not given)	-7.32	-8.02	
COc1ccc(C)c(OC(CCN2CCC(n3c(=O)n(Cc4cscn4)c4ccccc43)CC2)C(C)C)c1 (stereo not given)	-7.37	-8.92	
COc1ccc(C)c(OC(CCN2CCC(n3c(=O)n(Cn4ccnc4C)c4ccccc43)CC2)C(C)C)c1 (stereo not given)	-6.91	-8.31	
COc1ccc(C)c(OC(CCN2CCC(n3c(=O)n(Cc4nnc(C)[nH]4)c4ccccc43)CC2)C(C)C)c1 (stereo not given)	-6.92	-7.38	
COc1ccc(C)c(OC(CCN2CCC(n3c(=O)n(Cc4ncn[nH]4)c4ccccc43)CC2)C(C)C)c1 (stereo not given)			ED50 [3]: 0.65 µmol/kg; Log Ki [4]: -5.89; Log Ki [5]: -6.06; ED50 [6]: 2.62 µmol/kg
COc1ccc(C)c(OC(CCN2CCC(n3c(=O)n(Cc4noc(C(C)(C)C)n4)c4ccccc43)CC2)C(C)C)c1 (stereo not given)	-6.28	-5.93	
COc1ccc(C)c(OC(CCN2CCC(n3c(=O)n(Cc4cc(C)on4)c4ccccc43)CC2)C(C)C)c1 (stereo not given)	-6.84	-7.66	
COc1ccc(C)c(OC(CCN2CCC(n3c(=O)n(Cc4csc(C)n4)c4ccccc43)CC2)C(C)C)c1 (stereo not given)	-7.41	-7.76	
